# From PubChem BioAssay AID1813 (Broad Institute, 2009)
# Only a part is listed here, and it is no random draw. Active and inactive are the calls of the source. Rule as the data show it: active = inhibition above about 60%; inconclusive = no clear call, values can overlap the other calls; inactive = below that.
# Test: MLPCN primary screen, SNCA 5' untranslated region (AID 1813);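 also: H4 neuroglioblastoma cells stably carrying SNCA 5'UTR luciferase fusion; 0% = DMSO wells and 100% = positive control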
# Conditions: alpha-synuclein 5'UTR reporter, inhibitor activity; active compounds read high; tested at 7.5 µM
row,Compound,inhibition
1,CN(C)C(=O)OCCc1n(C)cc[n+]1C,inactive: -5.18%
2,CCN(/C(=N/P(=O)(N1CCOCC1)N1CCOCC1)N1CCOCC1)c1ccc(OC)cc1,inactive: -1.98%
3,Nc1ccc([As](=O)(O)c2ccc(N)cc2)cc1,inactive: 13.2%
4,C[N+]1=C2C=CC=CC=C2SC12C([N+](=O)[O-])=CC([N+](=O)[O-])=C[C-]2[N+](=O)[O-] (centres undefined),inactive: -55.9%
5,Cc1ccc(NP(=O)(Oc2ccccc2)Oc2ccccc2)nc1,inactive: -23.3%
6,O=[N+]([O-])c1cc([N+](=O)[O-])c(CCNc2ccccc2)c([N+](=O)[O-])c1,inactive: -83.8%
7,CCc1nc2c(n1)c1c(non1O)c1c2no[n+]1[O-],inactive: -15.3%
8,CC(=O)N1C2C3N(C(C)=O)C1C1N(C(C)=O)C(C(N1C(C)=O)N3C(C)=O)N2C(C)=O,inactive: 13.3%
9,O=[N+]([O-])c1cccc2n[nH]nc12,inactive: -14.3%
10,COc1ccc(C2=NCC(CBr)S2)cc1 (centres undefined),inactive: -21.8%
11,c1nnnn1CCn1cnnn1,inactive: 5.31%
12,O=P(Nc1nccs1)(c1ccccc1)c1ccccc1,inactive: -5.59%
13,CC(C)C(=O)NC(Sc1ccccc1)C(Cl)(Cl)Cl (centres undefined),inactive: 14.3%
14,O=C(OC1CN2CCC1CC2)c1cccc(Cl)c1 (centres undefined),inactive: -6.3%
15,Nc1ccc([As](=O)(O)c2ccc([N+](=O)[O-])cc2)cc1,inactive: -1.92%
16,C(Cc1nn[nH]n1)Cc1nn[nH]n1,inactive: 7.84%
17,O=[As](O)(c1ccccc1)c1ccc(O)cc1,inactive: 12.4%
18,CC(=O)NC(SC(=S)N(C)C)C(Cl)(Cl)Cl (centres undefined),inactive: -0.937%
19,O=[N+]([O-])c1ncn(CCn2cnc([N+](=O)[O-])n2)n1,inactive: 24.4%
20,O=[N+]([O-])c1ccc(O)c(/C=N/Nc2ccc([N+](=O)[O-])cc2[N+](=O)[O-])c1,inactive: 4.62%
21,O=P(Nc1nc2ccccc2s1)(c1ccccc1)c1ccccc1,inactive: -5.08%
22,C[C@H]1OP(=O)(Oc2ccccc2)[C@H](O)[C@H](O)[C@H]1N=[N+]=[N-] (some centres undefined),inactive: 10.1%

row,Compound,inhibition
1,CN(C)C1(CNC(=O)c2ccc(Cl)c(S(N)(=O)=O)c2)CCCCC1,inactive: -7.34%
2,O=P(Nc1ccccn1)(c1ccc(Br)cc1)c1ccc(Br)cc1,inactive: -12.9%
3,Cc1ccccc1OP(=O)(Nc1ccccn1)Oc1ccccc1C,inactive: 4.45%
4,CN(C)C(=O)Oc1noc2ccccc12,inactive: -11.4%
5,O=C(OC1CN2CCC1CC2)c1ccccc1 (centres undefined),inactive: -20.6%
6,CCC(=O)N1C2C3N(C(=O)CC)C1C1N(C(=O)CC)C(C(N1C(=O)CC)N3C(=O)CC)N2C(=O)CC,inactive: -9.34%
7,COC(=O)c1cc2c(s1)N=C(c1ccccc1)N(C)P2(=O)N1CCOCC1 (centres undefined),inactive: -5.33%
8,CC(=O)NC(SC(=S)N(CC(C)C)CC(C)C)C(Cl)(Cl)Cl (centres undefined),inactive: 16.1%
9,Cc1ccc(OP(=O)(Nc2ccccn2)Oc2ccc(C)cc2)cc1,inactive: -4.56%
10,c1ccc(-c2nn[nH]n2)c(-c2nn[nH]n2)c1,inactive: 14.1%
11,Cc1ccc(NP(=O)(Oc2cccc(C)c2)Oc2cccc(C)c2)nc1,inactive: -4.34%
12,CCOC(=O)NC(Sc1ccccc1)C(Cl)(Cl)Cl (centres undefined),inactive: -15.8%
13,O=C(NC1CCS(=O)(=O)C1)NP(=S)(Oc1ccccc1)Oc1ccccc1 (centres undefined),inactive: 4.29%
14,CCNC(=S)/N=C(\N)N[N+](=O)[O-],inactive: -5.31%
15,CC(=O)Nc1ccc([As](=O)(O)O)c(O)c1,inactive: 2.12%
16,CC(=O)Nc1ccc(Oc2c([N+](=O)[O-])cc([N+](=O)[O-])cc2[N+](=O)[O-])cc1,inactive: 1.99%
17,C[C@@H]1C=CCP(=O)(Oc2ccccc2)O1 (some centres undefined),inactive: -6.2%
18,C[C@H]1OP(=O)(Oc2ccccc2)C[C@@H]2O[C@@H]21 (some centres undefined),inactive: 19.1%
19,CC(=O)c1ccc(N2CC2c2ccncc2)cc1 (centres undefined),inactive: 5.42%
20,CC(C)(C)C(=O)NC(Sc1ccccc1)C(Cl)(Cl)Cl (centres undefined),inactive: 0.0811%
21,O=P1(Nc2nc3ccc(Cl)cc3s2)COc2ccccc2O1 (centres undefined),inactive: -25.7%
22,CCOc1ccc(C2=NCC(CBr)S2)cc1 (centres undefined),inactive: -17.3%
